PubChem BioAssay (NCATS)
Several values for one entry are separate records, joined by “and”; a condition that tells them apart may be missing. Identical values can stand only once. The entries are a selection whose mix differs from that of the whole data set. Results filed as inconclusive are left out. Activity calls are given as the source filed them. Calls come from the whole dose curve; as a rule, active = well fitted curve in the direction sought with a large enough effect; inconclusive = small, poorly fitted or top-dose-only effect, or another doubt; inactive = no such curve, though single readings can be large; an effect the other way counts as inactive or inconclusive.

By UniProt entry, the sequences of proteins in these tests, tags left out.
UniProt P24462, whole entry: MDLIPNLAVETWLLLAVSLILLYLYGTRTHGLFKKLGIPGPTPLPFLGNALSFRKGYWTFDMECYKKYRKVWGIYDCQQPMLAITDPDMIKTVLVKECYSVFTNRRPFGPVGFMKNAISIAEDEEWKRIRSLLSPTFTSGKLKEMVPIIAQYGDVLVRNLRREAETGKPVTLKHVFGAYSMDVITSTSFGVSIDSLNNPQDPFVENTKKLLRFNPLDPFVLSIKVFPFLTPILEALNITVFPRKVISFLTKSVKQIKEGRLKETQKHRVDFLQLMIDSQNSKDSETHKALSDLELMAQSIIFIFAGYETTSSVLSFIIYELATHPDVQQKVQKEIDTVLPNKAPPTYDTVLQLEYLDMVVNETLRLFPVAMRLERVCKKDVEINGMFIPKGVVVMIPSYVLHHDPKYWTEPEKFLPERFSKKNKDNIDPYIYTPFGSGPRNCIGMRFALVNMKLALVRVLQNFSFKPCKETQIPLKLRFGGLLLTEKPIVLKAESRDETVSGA

Legend:
[1] = biological target: Cytochrome P450 3A7 (Homo sapiens) (UniProt P24462); experiment: Cytochrome P450 family 3 subfamily A member 7 (CYP3A7) small molecule antagonists: luciferase qHTS assay (AID 1963596; note: nearly all actives have a fitted effect of over 40% in size; note: potency is the fitted concentration of half-maximal effect)
Description: National Center for Advancing Translational Sciences [NCATS] Assay Overview: Cytochrome P450 (CYP) enzymes are membrane-bound hemeproteins that play a key role in metabolism of drugs and xenobiotics. The CYP3A subfamily is the most abundant, representing 30% of the total adult hepatic CYP content, whereas CYP3A7 is found predominantly in human fetal liver and accounts up to 50% of the total fetal hepatic CYP content. Testing the effect of chemicals on CYP isozymes is useful to minimize the adverse drug reactions and toxicities in the drug development process. Chemicals were tested for their effect on CYP enzyme activities by using P450-Glo (TM) screening systems (Promega Corporation, Madison, WI). These systems provide a luminescent method containing proluciferin substrates and are converted to luciferin products by CYP isozymes. The luciferin products formed are detected with a luciferin detection reagent, and the amount of light produced is proportional to CYP activity. P450-Glo (TM) CYP3A7 screening system (Catalog. No. V8812) was used to detect the compounds that interfere with CYP3A7 activity. The positive control compound used for CYP3A7 assay is ketoconazole (Sigma-Aldrich, St. Louis, MO).
Assay Protocol Summary: Two ul of enzyme-substrate mix was dispensed into medium binding white/solid 1536-well plates (Greiner Bio-One North America Inc., Monroe, NC) using a Flying Reagent Dispenser (FRD, Aurora Discovery, San Diego, CA). Compounds dissolved in DMSO, and positive control (ketoconazole) were transferred to the assay plates at 23 nl using a Pintool station (Wako, San Diego, CA). The assay plates were incubated at room temperature for 10 min. Then 2 ul of NADPH regeneration solution was added to each well of the assay plates using an FRD and incubated at room temperature for 1 h. The reaction was stopped by adding 4 ul of detection reagent using an FRD and after 20 min incubation at room temperature the luminescence signal was measured using a ViewLux plate reader (Perkin Elmer, Shelton, CT). Data were expressed as relative luminescence units.

[2] = Viability qHTS for spleen associated tyrosine kinase inhibitor (SYKi) drug resistant MV4-11 cells (AID 1963824); settings: SYKi-resistant MV4-11 viability, CellTiter-Glo, 72 h; note: potency is the fitted concentration of half-maximal effect; nearly all actives have a fitted effect of over 35% in size
Outline: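 CellTiter-Glo luminescence, read 10 min after reagent addition, reports viability after a 72 hr compound exposure. Cells are an MV4-11 line made resistant to SYK inhibition, seeded at 500 per well onto compound-containing plates.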

[3] = Cellular viability qHTS for adrenocortical cancer (ACC) cell line SW-13 (AID 1963989); settings: SW-13 ACC cells viability, CellTiter-Glo, 48 h; stronger effect = lower value;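 note: cells grown in serum-free medium with ITS supplement; % is set by controls: 0 for no effect and ±100 for the full control effect; nearly all actives have a fitted effect of over 65% in size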
Description: (§1) PI: Naris Nilubol, MD Surgical Oncology Program, National Cancer Institute (NCI) National Institute of Health (NIH), Bethesda, Maryland Adrenocortical cancer (ACC) is a rare malignancy with poor survival outcomes and few treatment options. Currently, mitotane is the only FDA-approved therapy for ACC. Although adjuvant radiation therapy is rarely utilized, it has the potential to improve survival in select cases. Through a quantitative high-throughput drug screen (qHTS), we identified auranofin (AF), a thioredoxin reductase (TXNRD) inhibitor, as a promising candidate drug. This study aims to evaluate whether AF can enhance the efficacy of radiation therapy in the treatment of ACC. Two human ACC cell lines, SW-13 and NCI-H295R, were screened using the National Center for Advancing Translational Sciences (NCATS) Pharmaceutical Collection (NPC) and the Mechanism Interrogation PlatE (MIPE) library (~4,991 compounds). […]
(§2) PROTOCOL TABLE (as described by Inglese J, Shamu CE and Guy RK. 2007) SEQUENCE No. (e.g., 1, 2, 3, etc.); […] […] 7; Detection; Luminescence; ViewLux plate reader NOTES (numbers refer to Sequence numbers above) 1. […] After incubation, luminescence was measured using a ViewLux plate reader (PerkinElmer, Waltham, MA, USA) with a clear filter was used to measure the number of metabolically competent cells. […]

[4] = Cellular viability qHTS for adrenocortical cancer (ACC) cell line NCI-H295R (AID 1963990); settings: CellTiter-Glo ATP luminescence, 48 h; at 92.7 µM (top of the series);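 note: 0% = DMSO only wells and -100% = full killing with cytotoxic reference compound; nearly all actives have a fitted effect of over 60% in size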
Description: as §1, §2

SMILES: CCC(=O)N(c1ccccc1)C1(COC)CCN(CCc2cccs2)CC1
- Potency [1]: active: 2240 nM
- Potency [2]: active: 38600 nM

SMILES: CN(CCCl)CCCl
- Potency [1]: inactive
- activity (max response) [3]: inactive: 2.06% and inactive: -11.9%

SMILES: CCC(=O)N(c1ccccc1)C1(COC)CCN(CCn2nnn(CC)c2=O)CC1
- Potency [1]: active: 2470 nM
- activity (max response) [3]: inactive: -6.46%
- activity change, negative = viability loss [4]: inactive: -10.5%
